What is called pIC50 is the IC50 on a negative log10 scale, so that one unit is a factor of ten.

Sequences of proteins named here, by UniProt entry; tags and fusion partners are left off. Residues count along the entry.
UniProt Q13231, 22-466: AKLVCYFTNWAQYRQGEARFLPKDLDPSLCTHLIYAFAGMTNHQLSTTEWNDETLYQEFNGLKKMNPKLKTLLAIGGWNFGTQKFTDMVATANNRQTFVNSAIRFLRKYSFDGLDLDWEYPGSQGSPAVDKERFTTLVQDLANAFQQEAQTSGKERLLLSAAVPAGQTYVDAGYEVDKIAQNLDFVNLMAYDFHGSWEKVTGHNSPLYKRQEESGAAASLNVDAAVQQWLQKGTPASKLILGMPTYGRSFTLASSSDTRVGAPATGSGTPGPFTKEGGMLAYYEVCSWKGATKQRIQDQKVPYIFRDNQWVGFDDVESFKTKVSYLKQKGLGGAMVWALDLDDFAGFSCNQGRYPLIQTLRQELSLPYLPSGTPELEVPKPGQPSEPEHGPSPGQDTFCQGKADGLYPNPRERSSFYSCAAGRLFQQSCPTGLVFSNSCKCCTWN

The structures appear in SMILES notation. pIC50: −log10 of the molar value.

IC50 data for 1 compound are collected here from patent US10208020B2 (dated 2019).

This test deals with recombinant human CHIT1 (Homo sapiens (Human), UniProt Q13231). The experiment in a line: Human CHIT1 activity assay. The format is biochemical.

For `NC(=O)[C@H]1CN(C2CCN(c3nnc(N)[nH]3)CC2)[C@@H](Cc2ccc(Cl)cc2)CO1` [Example 9, (2R,5S)-4-(1-(5-amino-4H-1,2,4-triazol-3-yl)piperidin-4-yl)-5-(4-chlorobenzyl)morpholine-2-carboxamide], the negative-log IC50 (pIC50) is more than 7.00.
